Measured values from patent US8354403B2, “Pyrrolidine derived beta 3 adrenergic receptor agonists” (Merck Sharp & Dohme Corp., priority 2009, dated 2013).

Sequences of proteins named here, by UniProt entry; tags and fusion partners are left off.
UniProt P13945, whole entry: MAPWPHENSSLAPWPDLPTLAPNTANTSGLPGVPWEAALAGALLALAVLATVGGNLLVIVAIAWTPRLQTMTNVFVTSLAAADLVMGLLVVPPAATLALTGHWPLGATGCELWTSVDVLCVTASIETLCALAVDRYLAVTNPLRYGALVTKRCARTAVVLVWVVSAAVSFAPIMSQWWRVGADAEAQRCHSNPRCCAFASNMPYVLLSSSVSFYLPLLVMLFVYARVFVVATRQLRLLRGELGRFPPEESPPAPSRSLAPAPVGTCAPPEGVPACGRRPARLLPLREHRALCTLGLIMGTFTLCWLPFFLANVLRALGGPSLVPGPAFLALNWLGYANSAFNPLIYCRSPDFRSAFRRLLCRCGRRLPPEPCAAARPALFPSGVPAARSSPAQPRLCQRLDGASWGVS

Molecular target: human β3 adrenergic receptor (Homo sapiens, UniProt P13945)
Experiment: Beta-3 agonist in vitro functional assay: cAMP production (LANCE TR-FRET) in CHO cells stably transfected with the cloned β3 receptor
Type: cell-based
Details: read-out: Human β3 agonist functional activity; Table 6; cAMP, CHO cells

Row | SMILES | EC50
1 | CC(C)c1nc([C@H]2[C@@H]3CN(C(=O)c4ccc(C[C@@H]5CC[C@H]([C@H](O)c6ccccc6)N5)cc4)C[C@@H]32)no1 | 10 to 99.9 nM
2 | CCOC(=O)[C@H]1[C@@H]2CN(C(=O)c3ccc(C[C@@H]4CC[C@H]([C@H](O)c5ccccc5)N4)cc3)C[C@@H]21 | < 1 nM
3 | CC(C)n1nnc([C@H]2[C@@H]3CN(C(=O)c4ccc(C[C@@H]5CC[C@H]([C@H](O)c6ccccc6)N5)cc4)C[C@@H]32)n1 | 1 to 9.9 nM

Next, values leading:

Row | EC50 | SMILES
4 | 1 to 9.9 nM | O=C(c1ccc(C[C@@H]2CC[C@H]([C@H](O)c3ccccc3)N2)cc1)N1C[C@@H]2[C@H](C1)[C@H]2c1nnn[nH]1
5 | 10 to 99.9 nM | O=C(c1ccc(C[C@@H]2CC[C@H]([C@H](O)c3ccccc3)N2)cc1)N1C[C@@H]2[C@H](C1)[C@H]2c1n[nH]c(=O)o1
